# scFv variants of Ab-14 (heavy chain) against a SARS-CoV-2 spike peptide

Reference: Engelhart et al. 2022, doi:10.1038/s41597-022-01779-4. File: FLAb, binding data.

The target is the same throughout: PDVDLGDISGINAS, from the HR2 region of SARS-CoV-2 spike.

Each scFv is VH, a (GGGGS)3 linker, VL, as in the parent Ab-14, and differs from it in the CDRs of the heavy chain only.
VH: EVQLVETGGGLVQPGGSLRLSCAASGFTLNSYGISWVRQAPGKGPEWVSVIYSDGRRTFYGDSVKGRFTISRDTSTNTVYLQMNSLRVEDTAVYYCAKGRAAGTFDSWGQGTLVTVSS
VL: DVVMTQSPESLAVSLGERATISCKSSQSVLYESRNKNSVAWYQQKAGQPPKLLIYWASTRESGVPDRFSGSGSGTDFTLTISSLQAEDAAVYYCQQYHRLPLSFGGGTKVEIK

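Phage display of a naive human antibody library on the peptide gave the parent. Variants in AAYL49 differ from the parent at up to three CDR positions; double and triple changes were sampled at random. Affinity was read by AlphaSeq, a pooled yeast mating assay with surface-displayed partners. The frequency of each diploid, read from paired DNA barcodes, reflects how well the two displayed proteins bind. A regression on co-assayed BCL2-family reference pairs converts the normalised counts of each replicate to an apparent Kd. The assay was run in three technical replicates.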

Positions count from residue 1 of the parent VH; Y52C puts C in place of Y. Numbers give log10(Kd / nM), so 0 is 1 nM and 3 is 1 µM. Smaller is tighter. Replicates are averaged; those with no signal do not enter the mean. A pair that was not seen in any replicate is written "nd"; this usually means weak binding, but a binder can also be missed. Nonspecific signal, from three strains lacking the peptide, appeared in 15% of pairings of library AAYL49, centred on 4.06 (5% of these signals below 2.83); values are not corrected for it. For each scFv, signals with the empty controls are counted beside the result.

| changes | log10 Kd (nM), mean | detected | control signals |
|---|---|---|---|
| Y52C/D62M/D106N | 4.58 | 1/3 | 0/9 |
| G61F/K65Y/S107T | nd | 0/3 | 1/9 |
| I34P/S35V/F105M | 2.79 | 1/3 | 0/9 |
| Y60Q/S107V | nd | 0/3 | 0/9 |
| Y52V/S63I/S107L | nd | 0/3 | 1/9 |
| D54F/R56S/F59C | nd | 0/3 | 2/9 |
| D54S/S63W/R100L | nd | 0/3 | 0/9 |
| N30S/K65G/D106K | 4.66 | 3/3 | 4/9 |
| N30M/G61H/S63R | 1.16 | 3/3 | 1/9 |
| Y60H/V64M/A102L | 3.64 | 1/3 | 3/9 |
| N30R/Y32I/V64F | 4.86 | 1/3 | 1/9 |
| T28P/V50N/Y52Q | nd | 0/3 | 2/9 |
| Y52G/D54M/R100W | 4.55 | 1/3 | 0/9 |
| T28F/L29I/A102I | 2.17 | 3/3 | 3/9 |
| V50T/G55N/T104W | 4.22 | 1/3 | 4/9 |
| N30S/Y32R/I34M | nd | 0/3 | 1/9 |
| G55W/F59W/T104H | 3.34 | 1/3 | 1/9 |
| G33K/R100M/A101R | nd | 0/3 | 0/9 |
| F27G/G61V/R100N | 1.97 | 1/3 | 0/9 |
| S31I/T104R/D106F | 2.69 | 2/3 | 0/9 |
| S31V/A102W | 1.91 | 3/3 | 1/9 |
| F27W/N30P/G61C | 4.82 | 1/3 | 0/9 |
| N30Q/Y32A/D54G | nd | 0/3 | 1/9 |
| G26I/T58I/G103D | 3.76 | 1/3 | 0/9 |
| G26K/L29K/G55N | nd | 0/3 | 0/9 |
| Y32R/S35G/D62H | nd | 0/3 | 4/9 |
| N30F/G55H/R57Q | nd | 0/3 | 0/9 |
| V50G/R56W/G99V | 3.81 | 2/3 | 4/9 |
| G26V/N30H/T58G | nd | 0/3 | 3/9 |
| G26V/G55F/R57N | nd | 0/3 | 1/9 |
| F27N/G33M/S53R | 5.16 | 1/3 | 0/9 |
| F27M/L29R/S35Y | 0.67 | 3/3 | 1/9 |
| L29H/G33V/K65L | 4.81 | 1/3 | 2/9 |
| D62S/V64P/S107R | nd | 0/3 | 1/9 |
| T28A/S63P/S107Q | 1.05 | 3/3 | 3/9 |
| R56F/D106F | 0.40 | 3/3 | 0/9 |
| I34M/D54M/T104E | nd | 0/3 | 0/9 |
| F27V/R100N/D106A | 5.43 | 3/3 | 2/9 |
| V50Y/G61Y/V64K | nd | 0/3 | 1/9 |
| F27R/G61I | 1.63 | 3/3 | 1/9 |
| S35G/D54Q | nd | 0/3 | 0/9 |
| F59R/T104V/F105D | 2.44 | 3/3 | 1/9 |
| S31E/G99R/S107F | nd | 0/3 | 2/9 |
| Y32S/Y52H/S63H | 3.84 | 1/3 | 1/9 |
| I51H/G103Y/S107L | nd | 0/3 | 0/9 |
| G26N/G61M/A101P | 4.32 | 3/3 | 0/9 |
| Y52F/Y60R/T104C | nd | 0/3 | 0/9 |
| T58N/A101F/A102G | 3.27 | 1/3 | 0/9 |
| L29Q/S53C/V64C | nd | 0/3 | 0/9 |
| N30Q/D54N/D62H | 4.12 | 1/3 | 3/9 |
| G33A/T58G/G61A | nd | 0/3 | 2/9 |
| T58D/Y60F | 4.77 | 2/3 | 0/9 |
| N30R/Y32W/S35N | nd | 0/3 | 1/9 |
| G33P/A102V/S107M | 4.68 | 3/3 | 2/9 |
| Y32E/F59P/G99S | nd | 0/3 | 0/9 |
| N30A/Y52E/D106P | 2.37 | 1/3 | 1/9 |
| V50Y/T58E/A102S | nd | 0/3 | 0/9 |
| R100W/A102L | nd | 0/3 | 0/9 |
| D62R/D106Q/S107G | 5.05 | 3/3 | 4/9 |
| R56I/D62W | nd | 0/3 | 1/9 |
| I34S/G99V | nd | 0/3 | 1/9 |
| D54Y/A102F/G103M | nd | 0/3 | 1/9 |
| D54W/D106I | nd | 0/3 | 1/9 |
| Y52Q/G61I/S63N | nd | 0/3 | 1/9 |
| R57E/F59P/D62N | nd | 0/3 | 1/9 |
| G55A/A101Y/G103C | 4.37 | 3/3 | 3/9 |
| G26N/N30R/G33E | 3.95 | 1/3 | 3/9 |
| G26S/S53F/S107E | nd | 0/3 | 0/9 |
| L29S/D62I | 4.04 | 1/3 | 1/9 |
| I34N/S53Y/G99I | nd | 0/3 | 0/9 |
| N30W/S53H/D62V | nd | 0/3 | 2/9 |
| G33R/R56M/T104H | nd | 0/3 | 0/9 |
| S35P/R56M/T58P | nd | 0/3 | 3/9 |

Picked from the list: the 9 lowest averages where every replicate gave a value.

| changes | log10 Kd (nM), mean | detected | control signals |
|---|---|---|---|
| R56F/D106F | 0.40 | 3/3 | 0/9 |
| F27M/L29R/S35Y | 0.67 | 3/3 | 1/9 |
| T28A/S63P/S107Q | 1.05 | 3/3 | 3/9 |
| N30M/G61H/S63R | 1.16 | 3/3 | 1/9 |
| F27R/G61I | 1.63 | 3/3 | 1/9 |
| S31V/A102W | 1.91 | 3/3 | 1/9 |
| T28F/L29I/A102I | 2.17 | 3/3 | 3/9 |
| F59R/T104V/F105D | 2.44 | 3/3 | 1/9 |
| G26N/G61M/A101P | 4.32 | 3/3 | 0/9 |